# PubChem BioAssay AID1434 (Sanford-Burnham Center for Chemical Genomics, 2008)
# Amino acid sequences for entries named in this document (tags omitted).
# UniProt Q01196, whole entry, looked up: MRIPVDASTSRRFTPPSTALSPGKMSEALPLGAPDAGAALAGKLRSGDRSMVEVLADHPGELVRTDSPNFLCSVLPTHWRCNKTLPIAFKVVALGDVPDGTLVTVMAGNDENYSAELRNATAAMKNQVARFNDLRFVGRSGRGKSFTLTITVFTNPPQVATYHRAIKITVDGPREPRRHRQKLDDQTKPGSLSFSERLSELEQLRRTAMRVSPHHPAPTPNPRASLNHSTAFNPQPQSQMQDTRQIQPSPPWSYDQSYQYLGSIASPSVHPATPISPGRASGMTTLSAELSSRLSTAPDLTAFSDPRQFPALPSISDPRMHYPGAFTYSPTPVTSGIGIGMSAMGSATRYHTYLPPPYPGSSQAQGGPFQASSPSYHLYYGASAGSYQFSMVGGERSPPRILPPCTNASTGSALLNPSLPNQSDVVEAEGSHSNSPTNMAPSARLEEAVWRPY
# UniProt Q13951, whole entry, looked up: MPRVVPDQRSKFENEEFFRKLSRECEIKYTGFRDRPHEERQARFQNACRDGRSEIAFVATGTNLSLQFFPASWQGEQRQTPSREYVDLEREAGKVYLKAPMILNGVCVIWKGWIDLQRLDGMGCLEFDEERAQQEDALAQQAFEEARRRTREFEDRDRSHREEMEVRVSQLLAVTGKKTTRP
# Only a part is listed here, and it is no random draw. Some structures show a salt or complex split into parts, the way the source records it. Active and inactive are the calls of the source.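 Rule for the calls: active = mean inhibition across duplicate retests at 20 µM reaching about 50% (limit read from the data); inactive = the rest, inconclusive results apart.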
# Molecular target: Runt-related transcription factor 1 (Homo sapiens) + Core-binding factor subunit beta (Homo sapiens) (UniProt Q01196+Q13951)
# Assay: inhibitors of RUNX1 Runt–CBFb-SMMHC binding, primary screen, biochemical, FRET, Cerulean-Runt, Venus-CBFb-SMMHC, uHTS (AID 1434);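 note: 0% = DMSO wells and 100% = wells with excess untagged CBFb-SMMHC; inhibitors lower the FRET ratio by blocking Runt binding to CBFb-SMMHC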
# Details: Cerulean-Runt/Venus-CBFb-SMMHC FRET ratio 530/480, 1 h; at 20 µM; stronger effect = higher value
row,Compound,inhibition
1,COc1ccc(OP(C)(=O)Nc2ccc(Br)cc2)cc1 (stereo not drawn),inactive: 3%
2,CCN(CC)CC(O)COC(=O)C(O)(c1ccccc1)C1CCCCC1 (stereo not drawn),inactive: 0.7%
3,O=C(OCCCN1CCCC1)C(O)(c1ccccc1)C1CCCCC1 (stereo not drawn),inactive: -5.6%
4,COc1ccccc1OP(C)(=O)Nc1c(C)n(C)n(-c2ccccc2)c1=O (stereo not drawn),inactive: 1%
5,CCc1ccc(OP(C)(=O)Nc2cccnc2)cc1 (stereo not drawn),inactive: -2.5%
6,CP(=O)(Oc1ccccc1)N1CCOC1=O (stereo not drawn),inactive: 2.6%
7,COc1ccccc1OP(C)(=O)Nc1ccccc1Br (stereo not drawn),inactive: -1.8%
8,CC(C)(C)c1ccc(OP(C)(=O)O)cc1,inactive: -3.7%
9,CP(=O)(Nc1ccc(Cl)cc1)Oc1ccc(F)cc1 (stereo not drawn),inactive: 0.4%
10,CN(C)C(=O)c1c([N+](=O)[O-])cc([N+](=O)[O-])cc1[N+](=O)[O-],inactive: -3.3%
11,CCOC(=O)c1ccc(NP(C)(=O)Oc2ccc(Cl)cc2)cc1 (stereo not drawn),inactive: -0.5%
12,CP(=O)(OC12CC3CC(CC(C3)C1)C2)OC12CC3CC(CC(C3)C1)C2,inactive: 1.3%
13,Cc1cc(C)cc(OP(C)(=O)Nc2cccc(C(F)(F)F)c2)c1 (stereo not drawn),inactive: -4.9%
14,COc1ccccc1OP(C)(=O)Nc1ccc(C)c(C)c1 (stereo not drawn),inactive: -1%
15,COc1ccc(OP(C)(=O)Nc2ccccc2Br)cc1 (stereo not drawn),inactive: 1.1%
16,Cc1nc2ccc3ccccc3c2o1.O=[N+]([O-])c1cc([N+](=O)[O-])c(O)c([N+](=O)[O-])c1,inactive: -4.6%
17,CP(=O)(Nc1ccc(Cl)cc1Cl)Oc1ccccc1 (stereo not drawn),inactive: -1.1%
18,CP(=O)(OCCOc1ccccc1)OCCOc1ccccc1,inactive: 3.4%
19,COc1ccccc1OP(C)(=O)Nc1ccc(Br)cc1 (stereo not drawn),inactive: -0.3%
20,COc1ccc(OP(C)(=O)Nc2ccccn2)cc1 (stereo not drawn),inactive: 3.2%
21,CN(C)CCOC(=O)C(O)(c1ccccc1)C1CCCC1 (stereo not drawn),inactive: -3.9%

row,Compound,inhibition
1,Cc1c(NP(C)(=O)Oc2ccc(C(C)C)cc2)c(=O)n(-c2ccccc2)n1C (stereo not drawn),inactive: -9.2%
2,O=[N+]([O-])c1cc([N+](=O)[O-])c(Nc2ccccn2)c([N+](=O)[O-])c1,inactive: -0.1%
3,COc1ccccc1OP(C)(=O)Nc1ccc(C)cc1C (stereo not drawn),inactive: -1.9%
4,CP(=O)(Nc1ccccn1)Oc1ccccc1 (stereo not drawn),inactive: 0.9%
5,CP(=O)(Nc1ccccc1F)Oc1ccccc1 (stereo not drawn),inactive: 7.1%
6,CC(C)c1ccc(OP(C)(=O)Nc2ccc(SC(F)(F)F)cc2)cc1 (stereo not drawn),inactive: -2.7%
7,O=C(OC1CN2CCC1CC2)c1ccc([N+](=O)[O-])cc1 (stereo not drawn),inactive: 0.4%
8,O=C(OCCN1CCN(CCOCc2ccccc2)CC1)C(O)(c1ccccc1)c1ccccc1,inactive: 5.4%
9,COc1ccc2c(c1O)-c1c(O)c(OC)cc3c1[C@H](C2)[N+](C)(C)CC3.O=[N+]([O-])c1cc([N+](=O)[O-])c([O-])c([N+](=O)[O-])c1[O-],inactive: 0.9%
10,CCOC(=O)c1ccc(NP(C)(=O)Oc2ccc(F)cc2)cc1 (stereo not drawn),inactive: 1.6%
11,COc1ccc(OP(C)(=O)Nc2ccc(SC(F)(F)F)cc2)cc1 (stereo not drawn),inactive: -4.1%
12,CCN(CC)CCCOC(=O)C(O)(c1ccccc1)C1CCCCC1 (stereo not drawn),inactive: -1.5%
13,CP(=O)(Nc1ccccc1)Oc1ccc(F)cc1 (stereo not drawn),inactive: -3.5%
14,CCCCCOc1ccc(NP(C)(=O)Oc2ccc(Cl)cc2Cl)cc1 (stereo not drawn),inactive: -8.7%
15,COc1ccc(OP(C)(=O)Nc2cccc(Br)c2)cc1 (stereo not drawn),inactive: 1.9%
16,CN(C)CCOC(=O)C(O)(c1ccccc1)C1CCCCC1 (stereo not drawn),inactive: -1.7%
17,COc1ccc(NP(C)(=O)Oc2ccccc2OC)cc1 (stereo not drawn),inactive: 0.1%
18,O=[N+]([O-])c1ccc(OP2(=O)COCCO2)cc1 (stereo not drawn),inactive: 0.5%
19,O=[N+]([O-])c1cc([N+](=O)[O-])c(NCC2CCS(=O)(=O)C2)c([N+](=O)[O-])c1 (stereo not drawn),inactive: 1.4%
20,Cc1cc(-c2cccc3ccccc23)c(C)cn1.O=[N+]([O-])c1cc([N+](=O)[O-])c(O)c([N+](=O)[O-])c1,inactive: -0.2%
21,CP(=O)(Nc1ccc(SC(F)(F)F)cc1)Oc1ccc(F)cc1 (stereo not drawn),inactive: 2.8%

row,Compound,inhibition
1,CCOP(C)(=S)SCC(=O)NC(C)(CC)C(=O)O (stereo not drawn),inactive: -3.9%
2,CP(=O)(Nc1ccc2c(c1)OCCO2)Oc1ccccc1 (stereo not drawn),inactive: 5.4%
3,Cc1ccccc1NP(C)(=O)Nc1ccccc1C,inactive: 0.3%
4,O=[N+]([O-])c1cc([N+](=O)[O-])c(-n2nnc3ccccc32)c([N+](=O)[O-])c1,inactive: -0.7%
5,Cc1nc2ccc3ccccc3c2s1.O=[N+]([O-])c1cc([N+](=O)[O-])c(O)c([N+](=O)[O-])c1,inactive: -13.7%
6,CCOC(=O)C(CC)C1=NC(C)(C)Cc2ccccc21.O=[N+]([O-])c1cc([N+](=O)[O-])c(O)c([N+](=O)[O-])c1 (stereo not drawn),inactive: 0.7%
7,O=[N+]([O-])c1cc([N+](=O)[O-])c(Nc2nnnn2CCO)c([N+](=O)[O-])c1,inactive: -5.1%
8,COc1ccccc1OP(C)(=O)Nc1c(C)cccc1C (stereo not drawn),inactive: -5.9%
9,CN1CCCCC1COC(=O)C1(O)c2ccccc2CCc2ccccc21 (stereo not drawn),inactive: 2.4%
10,CCCOc1ccc(NP(C)(=O)Oc2ccc(Cl)cc2)cc1 (stereo not drawn),inactive: -0.3%
11,CP(=O)(Nc1ccc(SC(F)(F)F)cc1)Oc1ccccc1 (stereo not drawn),inactive: -2%
12,O=C(O)c1cccc(Nc2c([N+](=O)[O-])cc([N+](=O)[O-])cc2[N+](=O)[O-])c1,inactive: -6.1%
13,CC1=NCCc2c1[nH]c1ccccc21.O=[N+]([O-])c1cc([N+](=O)[O-])c(O)c([N+](=O)[O-])c1,inactive: -14.6%
14,COc1ccccc1OP(C)(=O)Nc1cccc(Br)c1 (stereo not drawn),inactive: -0.7%
15,CCOC(=O)c1ccc(NP(C)(=O)Oc2cc(C)cc(C)c2)cc1 (stereo not drawn),inactive: -0.6%
16,Cc1cc(C)cc(OP(C)(=O)Nc2ccc(C)cc2C)c1 (stereo not drawn),inactive: -0.6%
17,Cc1ccc(C)c(NP(C)(=O)Oc2ccccc2)c1 (stereo not drawn),inactive: -2.4%
18,Cc1cc(C)cc(OP(C)(=O)Nc2ccccn2)c1 (stereo not drawn),inactive: -0.2%
19,CP(=O)(Nc1cccc(Br)c1)Oc1ccccc1 (stereo not drawn),inactive: 0.9%
20,CCN(CC)CCCOC(=O)C(O)(c1ccccc1)c1ccccc1,inactive: -0.3%
21,O=[N+]([O-])c1ccc2c(c1)C=Nc1ccccc1O2,inactive: -3.1%

row,Compound,inhibition
1,Cc1cccc(C)c1OP(C)(N)=O (stereo not drawn),inactive: -1%
2,CC(C)(C)c1ccc(OP(C)(=O)Nc2ccc(SC(F)(F)F)cc2)cc1 (stereo not drawn),inactive: -6.2%
3,Cc1ccc(NP(C)(=O)Oc2ccccc2)c(C)c1 (stereo not drawn),inactive: -1.6%
4,COc1ccccc1OP(C)(=O)Nc1ccc(C)cc1 (stereo not drawn),inactive: 0.2%
5,CCOC(=O)c1ccc(NP(C)(=O)Oc2ccccc2)cc1 (stereo not drawn),inactive: -3.2%
6,Cc1cc(C)cc(OP(C)(N)=O)c1 (stereo not drawn),inactive: 2%
7,COc1ccc(OP(C)(=O)Nc2cccc(F)c2)cc1 (stereo not drawn),inactive: -0.3%
8,COc1ccccc1OP(C)(=O)Nc1cc(Cl)ccc1C (stereo not drawn),inactive: -3.6%
9,CP(=S)(Nn1cnnc1)Oc1ccccc1 (stereo not drawn),inactive: -2.3%
10,CP(=O)(Nc1ccccc1Br)Oc1ccccc1 (stereo not drawn),inactive: 1.2%
11,COc1ccccc1OP(C)(=O)Nc1ccccc1 (stereo not drawn),inactive: 2%
12,CP(=O)(Oc1ccccc1)OC(c1ccccc1)C(F)(F)F (stereo not drawn),inactive: -3%
13,Cc1cccc(C)c1OP(C)(=O)Nc1ccc(SC(F)(F)F)cc1 (stereo not drawn),inactive: -2.2%
14,CP(=O)(Nc1ccc(SC(F)(F)F)cc1)Oc1ccc(Cl)cc1 (stereo not drawn),inactive: -2.5%
15,Cc1cc(C)cc(OP(C)(=O)Nc2ccc(SC(F)(F)F)cc2)c1 (stereo not drawn),inactive: -6.1%
16,CP(=O)(NC(=O)Nc1ccccc1)Oc1ccccc1 (stereo not drawn),inactive: 0%
17,CCc1ccc(OP(C)(=O)N2CCN(c3ccc([N+](=O)[O-])cc3)CC2)cc1 (stereo not drawn),inactive: -4.4%
18,CCOC(=O)c1ccc(NP(C)(=O)Oc2ccc(OC)cc2)cc1 (stereo not drawn),inactive: -1.1%
19,CCOP(C)(=S)SCC(=O)NC(C)C(=O)O (stereo not drawn),inactive: 0.9%
20,CP(=O)(Nc1ccccn1)Oc1ccc(Cl)cc1 (stereo not drawn),inactive: 2.2%
